Data reported in patent US20190038703A1, “METHODS OF TREATING ACUTE MYELOID LEUKEMIA WITH A FLT3 MUTATION” (Biokine Therapeutics Ltd., priority 2013, published 2019).

System: human AML MV4-11 cells (FLT3-ITD)
Test: Example 2 in-vitro viability and apoptosis by FACS
Assay type: cell-based
Details: BL-8040 20 μM, AC220 50 nM or their combination, 48 hrs

## CC(C)(C)c1cc(NC(=O)Nc2ccc(-c3cn4c(n3)sc3cc(OCCN5CCOCC5)ccc34)cc2)no1 [AC220, Quizartinib]
  cell death: 60%
